Assay results taken from ChEMBL document CHEMBL6121046, “Discovery of Novel Hydrazide-Based HDAC3 Inhibitors as Epigenetic Immunomodulators for Cancer Immunotherapy” (J Med Chem, 2025).

Organism: Homo sapiens
Assay: Selectivity index, ratio of IC50 for recombinant human HDAC1 to IC50 for recombinant human HDAC3

| SMILES | Selectivity Index |
| --- | --- |
| CCCNNC(=O)c1ccc(CNC(=O)c2cnc(-c3ccc4occc4c3)[nH]2)cc1 | 75 |
| CCCNNC(=O)c1ccc(CNC(=O)c2cnc(-c3ccc4ccccc4c3)[nH]2)cc1 | 24 |
| CCCNNC(=O)c1ccc(CNC(=O)c2cnc(-c3ccccc3)[nH]2)cc1 | 33 |
| CCCNNC(=O)c1ccc(CNC(=O)c2cnc(-c3cccc4ccccc34)[nH]2)cc1 | 33 |
